The test system of one test is STAT3. Briefly: HCS STAT3 assay. The class given is cell-based.
The test system of the next test is STAT1. Briefly: STAT1 assay (selectivity counter-screen). The class given is cell-based. The conditions noted are these: Table 5; * average of 2 experiments.
[1] abbreviates: Table 1, read-out: STAT3 (mean IC50).
Setting [2] is: Table 4, read-out: STAT3 IC50 (converted).
Where [3] appears, read: Table 5, * average of 2 experiments, read-out: STAT3 IC50 (converted).
The mark [4] stands for this setting: Table 2, read-out: STAT3 (IC50).

Like-named read-outs stand apart in the source and are kept apart here.

Take `COc1ccc(C2=Nn3c(nnc3-c3[nH]nc4c3CCC4)SC2)cc1`: in the test with STAT3 (setting [1]), the concentration for half-maximal inhibition (IC50) (commonly the concentration that inhibits the measured activity by half) was found to be 35.9 µM.
Regarding `Clc1ccc(C2=Nn3c(nnc3-c3cc(-c4ccccc4)n[nH]3)SC2)cc1Cl` [1b], the IC50 in the test with STAT3 (setting [2]) was 31.2 µM.
On the same count and under the same terms, the same measure for `Clc1ccc(C2=Nn3c(nnc3-c3[nH]nc4c3CCC4)SC2)cc1` [2a]: 26.8 ± 22.3 µM; for `Clc1cccc(C2=Nn3c(nnc3-c3[nH]nc4c3CCC4)SC2)c1` [6a]: 21.2 ± 5.9 µM; for `Clc1ccc(C2=Nn3c(nnc3-c3[nH]nc4c3CCC4)SC2)s1` [10a]: 11 ± 5.5 µM.
`COc1ccc(C2=Nn3c(nnc3-c3cc(-c4ccc(Cl)cc4)n[nH]3)SC2C)cc1` (stereo not shown) [Cmpd 24] had an IC50 in the test on STAT1 of 29.5 µM.
`COc1ccc(C2=Nn3c(nnc3-c3[nH]nc4c3CCC4)SC2C(C)C)cc1` (stereo not shown) [Cmpd 26]: the IC50 in the test on STAT3 (setting [3]) was 2.2 ± 1.2 µM.
For the compound `CCC(C)C1Sc2nnc(-c3cc(-c4ccccc4)n[nH]3)n2N=C1c1ccc(OC)cc1` (stereo not shown) [Cmpd 28], in the test on STAT3 (setting [3]), the half-inhibitory concentration (IC50) is 5.1 µM.
As to `COc1ccc(C2=Nn3c(nnc3-c3[nH]nc4c3CCC4)SC2C(C)C)cc1` (stereo not shown) [UPCDC10318], the 50% inhibitory concentration (IC50) in the test on STAT3 (setting [1]) came to 8.47 µM; in the test on STAT3 (setting [4]), 8.5 µM.
On to `Clc1ccc(C2=Nn3c(nnc3-c3[nH]nc4c3CCC4)SC2)cc1` [UPCDC87346005], for which, in the test on STAT3 (setting [1]), the half-inhibitory concentration (IC50) was 40 µM.
Regarding `COc1ccc(C2=Nn3c(nnc3-c3cc(-c4ccccc4)n[nH]3)SC2CC(C)C)cc1` (stereo not shown) [compound 10307], the half-inhibitory concentration (IC50) with STAT3 (setting [4]) was determined as 13.6 µM.
On the same count and under the same terms, the value for `COc1ccc(C2=Nn3c(nnc3-c3cc(-c4ccccc4)n[nH]3)SC2CCN)cc1` (stereo not shown) [compound 10371] was 11.7 µM.
